This note sets out measurements from PubChem BioAssay AID720700 (The Scripps Research Institute Molecular Screening Center, 2013).

Protein sequences, listed by entry. Tags and fused reporters are not part of them. Lines headed by an entry give the natural chain unless they say otherwise; changes in a name come on top.
UniProt P19174: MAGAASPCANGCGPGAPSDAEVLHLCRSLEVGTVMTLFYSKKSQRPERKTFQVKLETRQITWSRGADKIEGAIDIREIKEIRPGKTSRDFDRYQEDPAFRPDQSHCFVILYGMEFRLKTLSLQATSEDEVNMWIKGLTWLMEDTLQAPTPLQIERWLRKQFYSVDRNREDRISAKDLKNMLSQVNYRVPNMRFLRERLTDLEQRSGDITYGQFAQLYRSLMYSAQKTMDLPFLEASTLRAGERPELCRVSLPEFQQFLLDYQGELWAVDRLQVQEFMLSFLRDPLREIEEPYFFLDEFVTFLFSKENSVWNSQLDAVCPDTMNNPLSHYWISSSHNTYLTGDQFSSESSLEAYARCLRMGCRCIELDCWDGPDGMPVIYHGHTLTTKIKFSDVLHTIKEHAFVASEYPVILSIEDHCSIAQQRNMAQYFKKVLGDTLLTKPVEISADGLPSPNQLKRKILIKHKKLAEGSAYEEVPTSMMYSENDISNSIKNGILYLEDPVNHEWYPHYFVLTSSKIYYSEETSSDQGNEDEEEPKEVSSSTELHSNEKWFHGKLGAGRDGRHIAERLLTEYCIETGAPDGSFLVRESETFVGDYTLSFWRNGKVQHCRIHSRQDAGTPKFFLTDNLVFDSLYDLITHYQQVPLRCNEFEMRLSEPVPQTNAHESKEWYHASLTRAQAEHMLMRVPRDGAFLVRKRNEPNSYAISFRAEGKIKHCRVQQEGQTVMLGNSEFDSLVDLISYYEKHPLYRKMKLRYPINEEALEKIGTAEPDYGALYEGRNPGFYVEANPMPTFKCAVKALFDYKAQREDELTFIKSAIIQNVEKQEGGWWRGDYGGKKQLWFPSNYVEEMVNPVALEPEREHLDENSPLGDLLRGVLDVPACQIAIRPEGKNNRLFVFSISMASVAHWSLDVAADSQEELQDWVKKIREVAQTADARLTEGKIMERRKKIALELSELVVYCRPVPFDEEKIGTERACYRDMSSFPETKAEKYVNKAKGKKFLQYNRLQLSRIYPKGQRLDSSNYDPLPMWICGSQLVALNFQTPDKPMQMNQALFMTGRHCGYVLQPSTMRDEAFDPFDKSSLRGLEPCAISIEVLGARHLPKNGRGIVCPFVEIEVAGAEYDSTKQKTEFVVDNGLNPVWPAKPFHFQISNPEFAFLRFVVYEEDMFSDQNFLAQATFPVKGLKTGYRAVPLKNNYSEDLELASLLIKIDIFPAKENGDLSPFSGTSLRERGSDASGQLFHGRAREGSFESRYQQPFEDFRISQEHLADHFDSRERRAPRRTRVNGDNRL

Each structure is given as a SMILES string. This is a selection; strong and weak results do not stand in their true shares. Activity calls are given as the source filed them. No stated cut-off is given here; in the data, active means inhibition above about 9.5%; inactive means the rest.

The assay has as its target 1-phosphatidylinositol 4,5-bisphosphate phosphodiesterase gamma-1 (Homo sapiens) (UniProt P19174). As to the kind of experiment: PLC-gamma1 enzyme inhibitors, primary screen, biochemical, fluorescence, purified enzyme (AID 720700). To be noted: purified PLC-gamma1, fluorogenic substrate, at 12.2 µM, hits give high values.
One may read the inhibition as the change of the read-out against control, counted positive when it falls. As for `C[C@H]1OP(=O)(Oc2ccccc2)[C@H](O)[C@H](O)[C@H]1N=[N+]=[N-]` (some centres not stated), the inhibition was inactive: 0.92%.
In the case of `O=P(Nc1nc2ccccc2s1)(c1ccccc1)c1ccccc1`, the inhibition was inactive: -1.29%.
`CN(C)C1(CNC(=O)c2ccc(Cl)c(S(N)(=O)=O)c2)CCCCC1`: the inhibition is inactive: 0.25%.
Consider `O=P(Nc1ccccn1)(c1ccc(Br)cc1)c1ccc(Br)cc1`, for which the inhibition was inactive: -2.54%.
For `Nc1ccc(CCCCOc2ccccc2)cc1`, the inhibition is inactive: 0.64%.
Take `COc1ccc(N)c([N+](=O)[O-])c1[N+](=O)[O-]`: the inhibition was inactive: 1.91%.
On to `O=C(OC1CN2CCC1CC2)c1cccc(Cl)c1` (configuration not stated), for which the inhibition was inactive: 2.22%.
In the case of `Nc1ccc([As](=O)(O)c2ccc([N+](=O)[O-])cc2)cc1`, the inhibition is inactive: 0.59%.
Turning to `C(Cc1nn[nH]n1)Cc1nn[nH]n1`, the inhibition was inactive: -0.41%.
Consider `C/C(N)=N\P(=O)(OCc1ccccc1)OCc1ccccc1`, for which the inhibition was inactive: 2.42%.
To `O=[As](O)(c1ccccc1)c1ccc(O)cc1` belongs inactive: 3.48%; to `O=[N+]([O-])c1ncn(CCn2cnc([N+](=O)[O-])n2)n1`, inactive: 1.41%; to `CC(=O)NC(SC(=S)N(C)C)C(Cl)(Cl)Cl` (configuration not stated), inactive: 3.47%.
The result for `c1nnnn1CCn1cnnn1` reads inactive: 1.6%; that for `O=P(Nc1nccs1)(c1ccccc1)c1ccccc1`, inactive: 1.8%; that for `CC(C)C(=O)NC(Sc1ccccc1)C(Cl)(Cl)Cl` (configuration not stated), inactive: 2.46%.
For `CC(C)(C)C(=O)NC(Sc1ccccc1)C(Cl)(Cl)Cl` (configuration not stated), the inhibition is inactive: 4.35%.
For `CCc1cc(O)c([N+](=O)[O-])c(C)c1[N+](=O)[O-]`, the inhibition is inactive: -2%.
As for `CCOc1ccc(C2=NCC(CBr)S2)cc1` (configuration not stated), the inhibition is inactive: 0.72%.
For the compound `O=P1(Nc2nc3ccc(Cl)cc3s2)COc2ccccc2O1` (configuration not stated), the inhibition was inactive: 1.79%.
For the compound `CC(=O)Nc1ccc(Oc2c([N+](=O)[O-])cc([N+](=O)[O-])cc2[N+](=O)[O-])cc1`, the inhibition is inactive: 1.74%.
Regarding `CC(=O)Nc1ccc([As](=O)(O)O)c(O)c1`, the inhibition was inactive: 1.72%.
The result for `C[C@@H]1C=CCP(=O)(Oc2ccccc2)O1` (some centres not stated) reads inactive: 3.77%; that for `C[C@H]1OP(=O)(Oc2ccccc2)C[C@@H]2O[C@@H]21` (some centres not stated), inactive: 1.63%; that for `Cc1ccccc1CN(C)C(=O)COC(=O)C(O)(c1ccccc1)c1ccccc1`, inactive: 1.77%.
For `COC(=O)C1(C)COP(=O)(NCc2ccccc2)OC1` (configuration not stated), the inhibition was inactive: 0.58%.
The result for `N#C/C(=C\c1ccc(N(CCBr)CCBr)cc1)C(N)=O` reads inactive: -15.7%; that for `CC(=O)c1ccc(N2CC2c2ccncc2)cc1` (configuration not stated), inactive: 0.14%.
On to `O=P1(N(CCCl)CCCl)OCCC2CCCCN21` (configuration not stated), for which the inhibition is inactive: 9.42%.
As to `Cc1ccc(NP(=O)(Oc2cccc(C)c2)Oc2cccc(C)c2)nc1`, the inhibition is inactive: 3.3%.
As to `c1ccc(-c2nn[nH]n2)c(-c2nn[nH]n2)c1`, the inhibition was inactive: 1.97%.
In the case of `O=C(NC1CCS(=O)(=O)C1)NP(=S)(Oc1ccccc1)Oc1ccccc1` (configuration not stated), the inhibition is inactive: 2.22%.
For `CCNC(=S)/N=C(\N)N[N+](=O)[O-]`, the inhibition is inactive: 2.31%.
With `CN(C)C(=O)Oc1noc2ccccc12`, the inhibition was inactive: 1.83%.
As for `O=c1c2cc([N+](=O)[O-])ccc2[nH]c2c([N+](=O)[O-])cc([N+](=O)[O-])cc12`, the inhibition is inactive: -0.1%.
As for `Cc1ccccc1OP(=O)(Nc1ccccn1)Oc1ccccc1C`, the inhibition is inactive: -5.11%.
For the compound `CC(NC(=O)COC(=O)C(O)(c1ccccc1)c1ccccc1)c1ccccc1` (configuration not stated), the inhibition is inactive: 2.42%.
On to `CCC(=O)N1C2C3N(C(=O)CC)C1C1N(C(=O)CC)C(C(N1C(=O)CC)N3C(=O)CC)N2C(=O)CC`, for which the inhibition was inactive: -1.47%.
On to `O=C(OC1CN2CCC1CC2)c1ccccc1` (configuration not stated), for which the inhibition was inactive: -0.61%.
Turning to `Cc1ccc(OP(=O)(Nc2ccccn2)Oc2ccc(C)cc2)cc1`, the inhibition was inactive: 0.24%.
Regarding `CC(=O)NC(SC(=S)N(CC(C)C)CC(C)C)C(Cl)(Cl)Cl` (configuration not stated), the inhibition is inactive: 1.45%.
Consider `COC(=O)c1cc2c(s1)N=C(c1ccccc1)N(C)P2(=O)N1CCOCC1` (configuration not stated), for which the inhibition is inactive: -1.85%.
For `CCn1c(=O)n(C2CCN(CC3CCCCCCC3)C[C@H]2CO)c2ccccc21` (some centres not stated), the inhibition is inactive: -0.35%.
Take `CN(C(=O)Cc1ccc(Cl)c(Cl)c1)[C@H]1CCCC[C@@H]1N1CCCC1`: the inhibition was inactive: -1%.
For `Cc1ccc(NP(=O)(Oc2ccccc2F)Oc2ccccc2F)nc1`, the inhibition was inactive: 1.48%.
`CCOP(=O)(Nc1ccccc1)OCC`: the inhibition was inactive: -0.04%.
As to `Cc1cc(SC(NC(=O)c2ccc(F)cc2)C(Cl)(Cl)Cl)ncn1` (configuration not stated), the inhibition is inactive: 1.33%.
For the compound `CN(C)P(=O)(N(C)C)n1c(Nc2ccccc2)nnc1-c1ccccc1`, the inhibition was inactive: -2.18%.
As for `O=P(Nc1nc2ccc(Cl)cc2s1)(c1ccccc1)c1ccccc1`, the inhibition was inactive: 0.42%.
To `CCCC1OP(N)(=O)OCC1CC` (configuration not stated) belongs inactive: 4.2%; to `O=C(O)c1ccccc1[As](=O)(O)O`, inactive: 1.13%; to `CC(=O)Nc1ccc([As](=O)(O)O)cc1`, inactive: -0.32%.
In the case of `Nc1cccc2ccc([As](=O)(O)O)cc12`, the inhibition was inactive: -498%.
The result for `CCN(N=Nc1nonc1N)c1nonc1N` reads inactive: 6.76%; that for `CN(C(=O)Cc1ccccc1)C1CC[C@@]2(CCCO2)C[C@@H]1N1CCCC1` (some centres not stated), inactive: -3.52%.
Regarding `Clc1ccc(Cl)c(NC2=NCC(CBr)S2)c1` (configuration not stated), the inhibition was inactive: 0.94%.
To `CN1CCCC(OC(=O)C(c2ccccc2)c2ccccc2)C1` (configuration not stated) belongs inactive: 2.78%; to `Cc1ccc(OP(=O)(Nc2nccs2)Oc2ccc(C)cc2)cc1`, inactive: 0.93%.
`COc1ccccc1OP(=O)(Nc1ccc(C)cn1)Oc1ccccc1OC`: the inhibition was inactive: 3.78%.
With `Cc1ccc(N/C(=N/P(=O)(N2CCOCC2)N2CCOCC2)N2CCOCC2)cc1`, the inhibition was inactive: 4.11%.
As for `CN(C(=O)Cc1ccc(Cl)c(Cl)c1)[C@H]1CCCC[C@H]1N1CCCC1`, the inhibition is inactive: 4.87%.
On to `NC(=O)c1cc([N+](=O)[O-])cc([N+](=O)[O-])c1N`, for which the inhibition is inactive: 4.66%.
Take `O=C(NC(Sc1ccncn1)C(Cl)(Cl)Cl)c1ccccc1` (configuration not stated): the inhibition is inactive: 1.4%.
`Oc1ccccc1CNc1ccccn1`: the inhibition is inactive: 0.84%.
In the case of `CC(C)CC(=O)NC(Sc1ccc(Cl)cc1)C(Cl)(Cl)Cl` (configuration not stated), the inhibition was inactive: 0.72%.
In the case of `Nc1cc(N)c2nonc2c1[N+](=O)[O-]`, the inhibition is inactive: -10.2%.
In the case of `O=[N+]([O-])c1cc([N+](=O)[O-])c(CCNc2ccccc2)c([N+](=O)[O-])c1`, the inhibition is inactive: 9.18%.
Regarding `CCc1nc2c(n1)c1c(non1O)c1c2no[n+]1[O-]`, the inhibition is inactive: 0.66%.
As for `Cc1ccc(NP(=O)(Oc2ccccc2)Oc2ccccc2)nc1`, the inhibition was inactive: -0.19%.
With `CC(=O)N1C2C3N(C(C)=O)C1C1N(C(C)=O)C(C(N1C(C)=O)N3C(C)=O)N2C(C)=O`, the inhibition was inactive: 7.34%.
To `O=[N+]([O-])c1cccc2n[nH]nc12` belongs inactive: -1.69%; to `COc1ccc(C2=NCC(CBr)S2)cc1` (configuration not stated), inactive: 0.17%.
As for `c1cc(-c2nn[nH]n2)ccc1-c1nn[nH]n1`, the inhibition is inactive: 6.24%.
As to `CC1CCN(C(=O)Oc2c(Cl)cc(Cl)c3cccnc23)CC1`, the inhibition was inactive: 1.22%.
Consider `CN(C)C(=O)OCCc1n(C)cc[n+]1C`, for which the inhibition is inactive: 0.01%.
Take `CC(C)=N/N=C(\N)N[N+](=O)[O-]`: the inhibition was inactive: -1.15%.
Regarding `CC(C)c1nc(Nc2ccccc2)n(P(=O)(N(C)C)N(C)C)n1`, the inhibition is inactive: 3.95%.
Take `CCN(/C(=N/P(=O)(N1CCOCC1)N1CCOCC1)N1CCOCC1)c1ccc(OC)cc1`: the inhibition was inactive: 2.29%.
To `C[N+]1=C2C=CC=CC=C2SC12C([N+](=O)[O-])=CC([N+](=O)[O-])=C[C-]2[N+](=O)[O-]` (configuration not stated) belongs inactive: 5.79%; to `Nc1ccc([As](=O)(O)c2ccc(N)cc2)cc1`, inactive: 0.46%; to `O=C(Nc1cc([As](=O)(O)O)ccc1O)c1ccccc1`, inactive: 4.26%.
Regarding `O=P1(N(CCCl)CCCl)OCCCS1` (configuration not stated), the inhibition is inactive: 2.68%.
For the compound `O=C(O)CNc1ccc([As](=O)(O)O)cc1`, the inhibition is inactive: -0.68%.
For the compound `O=[N+]([O-])c1cccc(NC2=NCC(CBr)S2)c1` (configuration not stated), the inhibition is inactive: 2%.
Take `COC(=O)C1(C)COP(=O)(Nc2ccccc2)OC1` (configuration not stated): the inhibition was inactive: 1.84%.
`O=[N+]([O-])c1ncn(CCn2ncnc2[N+](=O)[O-])n1`: the inhibition is inactive: 1.89%.
The result for `CC(C)(C)C(=O)NC(Sc1ccncn1)C(Cl)(Cl)Cl` (configuration not stated) reads inactive: 1.55%.
`COP(=O)(OC)N1CC1c1ccccc1` (configuration not stated): the inhibition was inactive: 0.65%.
On to `Cc1cc(SC(NC(=O)c2ccccc2)C(Cl)(Cl)Cl)nc(C(C)C)n1` (configuration not stated), for which the inhibition was inactive: -6.14%.
For the compound `CCCCOc1ccc(C(=O)NCC2(N3CCCCC3)CCCCC2)cc1OC`, the inhibition is inactive: 2.76%.
For the compound `O=C(O)C(O)c1ccc(N(CCCl)CCCl)cc1` (configuration not stated), the inhibition was inactive: 1.41%.
For the compound `CCOC(=O)Nc1ccc([As](=O)(O)O)c(O)c1`, the inhibition is inactive: -0.73%.
The result for `CC1CCNP(=O)(N(CCCl)CCCl)O1` (configuration not stated) reads inactive: 0.08%; that for `Cc1cc(SC(NC=O)C(Cl)(Cl)Cl)ncn1` (configuration not stated), inactive: 0.39%.
To `O=P(Nc1ccccn1)(c1cccc2ccccc12)c1cccc2ccccc12` belongs inactive: 2.81%.
On to `O=[N+]([O-])c1ccc(Nc2ccc(Oc3ccc([N+](=O)[O-])cc3[N+](=O)[O-])cc2)c([N+](=O)[O-])c1`, for which the inhibition was inactive: 2.32%.
To `CCOC(=O)Nc1cccc([As](=O)(O)O)c1` belongs inactive: 3.25%; to `O=C(O)C(=O)c1ccc(N(CCCl)CCCl)cc1`, inactive: 1.4%; to `O=C(Nc1ccncc1[N+](=O)[O-])c1ccc([N+](=O)[O-])cc1[N+](=O)[O-]`, inactive: -2.84%.
As to `O=C(COc1ccccc1)OC1CN2CCC1CC2` (configuration not stated), the inhibition was inactive: -2.48%.
Consider `COC(=O)C1(C)COP(=O)(N2CCCC2)OC1` (configuration not stated), for which the inhibition was inactive: 6.25%.
For the compound `COP1(=S)c2c(C)nn(CCC#N)c2N=C(c2ccc(F)cc2)N1C` (configuration not stated), the inhibition is inactive: 0.33%.
